Among the data in patent US11285128B2, “Homogenous antibody drug conjugates via enzymatic methods” (CSPC Megalith Biopharmaceutical Co., Ltd., priority 2014, dated 2022) are tumor response values, retold here.

This test concerns SK_Ov3 xenograft. Description: In vivo efficacy in SK_Ov3 xenograft mice. The conditions noted are these: SK_Ov3 xenografts, 3 weekly doses of 15 mg/kg.

With TDM-1, the tumor response result is “showed efficacy”.
